Experimental data as given in PMC7571155, “Design, Synthesis and Biological Investigation of Flavone Derivatives as Potential Multi-Receptor Atypical Antipsychotics” (Molecules, 2020).

Experiment: in vivo
Details: mouse, po

Which ED50 does the source give for `Cc1nc2n(c(=O)c1CCN1CCC(c3noc4cc(F)ccc34)CC1)CCCC2` [Risperidone, reference compound] here?
The ED50 was 0.92 mg/kg.
